# Binding of CDR-mutated scFvs to a peptide of the spike HR2 region

All variants were tested on one target, the spike HR2 peptide PDVDLGDISGINAS (SARS-CoV-2).

Each scFv is VH, three GGGGS repeats, VL, as in the parent Ab-14, and differs from it in the CDRs of the heavy chain only.
VH: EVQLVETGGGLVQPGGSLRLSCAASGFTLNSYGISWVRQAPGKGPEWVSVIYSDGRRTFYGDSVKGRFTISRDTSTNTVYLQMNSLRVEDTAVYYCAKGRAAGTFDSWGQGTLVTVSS
VL: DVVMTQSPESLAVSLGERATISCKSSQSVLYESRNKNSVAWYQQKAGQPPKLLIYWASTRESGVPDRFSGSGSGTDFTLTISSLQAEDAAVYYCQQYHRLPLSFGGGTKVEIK

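Phage display of a naive human antibody library on the peptide gave the parent. AAYL49 was designed without a model: most single CDR substitutions and a random sample of double and triple ones. In AlphaSeq, yeast of one mating type display the scFv and yeast of the other type display the target. The frequency of each diploid, read from paired DNA barcodes, reflects how well the two displayed proteins bind. Each replicate has its own calibration line, from reference interactions of the BCL2 family. Each pool was mated in three replicate cultures.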

The parent's heavy chain CDRs are GFTLNSYGIS, VIYSDGRRTFYGDSVK, GRAAGTFDS; each variant's own CDRs replace them letter for letter.
All variants listed here change S35 of the VH, counted from its first residue.
Values are log10 of the apparent Kd in nM; lower means stronger binding.
Replicates are averaged; those with no signal do not enter the mean.
Where no diploid with the target was found in any replicate, the entry reads "nd": below detection, most likely a poor binder, though not proof of it.

CDR-H1	CDR-H2	CDR-H3	log10 Kd (nM), mean	replicates with signal	control signals
GFRLNSYGIY	VIYSDGRRTFYGDSVK	GRAAGTQDS	nd	0/3	0/9
GFTLNSYGIR	VIYSDGRRTFYGDSLK	GRAAGTFDS	4.77	2/3	3/9
GFTLNSYGIN	VIYSDGRRTFYGDSVK	GNAAGTFMS	3.75	3/3	2/9
GFTLNRYGIT	VIYSDGRRTFYGDSVK	GRAAGTFDS	1.87	3/3	0/9
GFTLNSYGIE	VIYSDGRRTFYGDSVK	GKAAGTWDS	1.98	3/3	2/9
GFTLNSYGIC	VIYSDGQRTFYGDSVK	GRAAGTFDS	nd	0/3	1/9
GFTLNSYGLA	VIYSDGRRKFYGDSVK	GRAAGTFDS	3.66	1/3	1/9
GFTLNMYGIY	VIYSDGRRTFYGDSVK	GGAAGTFDS	5.14	2/3	3/9
GFTLNSYGIP	VIYSDGRRTQYGDSVK	GRAAGEFDS	nd	0/3	1/9
GFTLNSYGGC	VIYSDGRRTFYGDSVK	GRAAGTFDS	3.68	1/3	1/9
GFTLNSYGIT	VIYSDGRRTFQGDSVK	GTAAGTFDS	4.19	2/3	9/9
GFTLNSYGIM	VIYSDGVVTFYGDSVK	GRAAGTFDS	nd	0/3	0/9
GFTLNSYGIK	VIYSDGQRTFYGDSVF	GRAAGTFDS	5.76	2/3	2/9
GFTLNSYGIQ	VIYFDGRRTFYGDSVK	GRAAGVFDS	nd	0/3	2/9
GFTLNSYGIH	VIYSDGRRTFYGDSVK	GRAAGTSDS	nd	0/3	1/9
GFTVNSYGGQ	VIYSDGRRTFYGDSVK	GRAAGTFDS	0.25	3/3	1/9
GFTLNSYGIT	GIYSDGRRTFYGDSVK	GRAAGTFDR	nd	0/3	0/9
GFTLNSYGIW	VIYSDGRRTFPGDSVK	GRAAGCFDS	3.47	1/3	2/9
GFTLNSYGIR	VIYSDGRRTFYGDSAK	GRANGTFDS	nd	0/3	2/9
GFTLNSYGII	VIYCDGRRTFYGDSVK	GRAAGTSDS	nd	0/3	0/9
GFTLNSYGIV	VIYSDGRRTFWGDDVK	GRAAGTFDS	nd	0/3	1/9
GFTLNSYGIQ	VIYSDGRRTFYGDSVK	GRAAGTFDS	4.63	3/3	7/9
GTTLNSYGIY	VIYSDYRRTFYGDSVK	GRAAGTFDS	4.87	2/3	3/9
GFVLNSYGIK	VIYSDGRPTFYGDSVK	GRAAGTFDS	nd	0/3	1/9
GFTLNSYGIG	VIYSDGRRTFYGDCVK	GRAAGTFDV	nd	0/3	0/9
GFTLNSYGIV	VLYSDGRRTFYIDSVK	GRAAGTFDS	4.68	1/3	2/9
GFTLNDYGIE	VIYSDGRRTFYGDSVK	GRAAGTFDS	4.26	1/3	1/9
GFTLNSYGIF	VIYSDGRRTFYWDSVK	GRGAGTFDS	nd	0/3	0/9
GFCLNSKGIP	VIYSDGRRTFYGDSVK	GRAAGTFDS	nd	0/3	0/9
GFTLNSKGDC	VIYSDGRRTFYGDSVK	GRAAGTFDS	4.34	2/3	1/9
GFTLTSYGIC	VIYSDGRRTFYYDSVK	GRAAGTFDS	nd	0/3	0/9
GFTLNSYGIA	VIYSDGRRTFYGASVK	GRAAGSFDS	nd	0/3	1/9
AFTLNSYGIL	VIYSDGRRTFMGDSVK	GRAAGTFDS	1.14	3/3	0/9
GFTENSYGII	VIYSDGRRTFYGDSVK	GRAAGDFDS	5.00	2/3	4/9
GFALNKYGIM	VIYSDGRRTFYGDSVK	GRAAGTFDS	nd	0/3	0/9
GFTLNSYGIN	VIYGDGRRTFYGDSVK	GRKAGTFDS	nd	0/3	1/9
GFTLCSYGIH	VIYVDGRRTFYGDSVK	GRAAGTFDS	3.29	1/3	1/9
GFTLNSYGIN	VIYSDGRETFYGDSVK	GRAAGTFDI	nd	0/3	0/9
GFTMNSYGIW	VIYSDGRRTFYGDSVK	GRAAGTFDS	nd	0/3	1/9
GFTLNSYGIY	VIYPDGRRTKYGDSVK	GRAAGTFDS	4.71	2/3	3/9
GFTLNSYGIF	VLYSDGRRTFYGDSSK	GRAAGTFDS	4.43	2/3	5/9
GFTLNSYGIN	VYYSLGRRTFYGDSVK	GRAAGTFDS	nd	0/3	0/9
GFTLNSYGIF	VWYSDGRRTFWGDSVK	GRAAGTFDS	2.31	2/3	0/9
GFTLNSYGIW	VIYSDGPRTFYGDSVK	GRAADTFDS	nd	0/3	1/9
GATLNLYGII	VIYSDGRRTFYGDSVK	GRAAGTFDS	nd	0/3	0/9
GFPLNSYHIY	VIYSDGRRTFYGDSVK	GRAAGTFDS	5.02	2/3	4/9
GFTLNSYGIT	LIYSDIRRTFYGDSVK	GRAAGTFDS	nd	0/3	0/9
GFTLNSFGIL	VIYSDGRRTFYGDSVK	GRAAETFDS	nd	0/3	0/9
GFTLNSYGIN	VIYSDGRRTFYGSSVK	GMAAGTFDS	1.59	3/3	0/9
GFTANSYGII	VIYSDGRRTFYGDSVK	WRAAGTFDS	nd	0/3	0/9
GFTLNSYGIK	GIYSDGRRTFYGDSVK	GRAAGTFDW	nd	0/3	0/9
GFTLNSYGIF	VIYSDGRRTFYGDSVK	GRSAGTFDS	4.73	3/3	6/9
GFTLNSYGWP	VIYSDGRRTFYGDSVK	IRAAGTFDS	nd	0/3	0/9
GFTLKSYGIQ	VIYSDGRRTFYGDYVK	GRAAGTFDS	nd	0/3	0/9
GFTLNSYGIP	VIYSDGLRTFYGDSVK	GRAAGTFDD	nd	0/3	0/9
GATLNSYGIW	VIYSDGRRTFYGDSCK	GRAAGTFDS	4.39	1/3	4/9
IFTLNSYGIM	VIYSDGARTFYGDSVK	GRAAGTFDS	nd	0/3	2/9
GFTLNSYGIR	VIYSDGRRGFYGDSVM	GRAAGTFDS	4.24	1/3	5/9
GFTLNSYGID	VIYYDGRRTFYGDSVK	GRAAGTFDS	nd	0/3	4/9
GFTQNSYGIL	VIYSDGRRTFYGDSVK	GRAAGTFDA	4.74	2/3	3/9
GFTLNSYGIN	VIYSDGRRTFYGDSVK	GRAAGTFDS	2.96	3/3	3/9
GFTKNSYGIM	VIYSDGRRTFYGDSVK	GRAAGTFGS	nd	0/3	2/9
GFTLNSYGIW	VIYSDGRRTEYGDSVK	GRAAGTFWS	3.57	1/3	0/9
GFTLNFYGIV	VIYSDIRRTFYGDSVK	GRAAGTFDS	4.05	1/3	2/9
GFTLNSYGIE	VIYSDGRRTFYGDSVK	GRAAGTFDS	6.23	1/3	3/9
GFTLNGYGIF	VIYSDQRRTFYGDSVK	GRAAGTFDS	4.22	1/3	0/9
GFSLNSYGID	VIYSDGRRHFYGDSVK	GRAAGTFDS	4.63	2/3	5/9
GFTLNSYGIK	VIYSDSRRTFYGDSVK	GRAAGTGDS	3.53	1/3	5/9
GFTLNSYGIK	VIYSDGRRTFYGDNVK	GRAAITFDS	nd	0/3	0/9
GFTLNSYGIH	VAYSDGRRTFYGDSVK	RRAAGTFDS	4.07	1/3	1/9

Top 9 of the variants detected in all replicates, tightest first:

CDR-H1	CDR-H2	CDR-H3	log10 Kd (nM), mean	replicates with signal	control signals
GFTVNSYGGQ	VIYSDGRRTFYGDSVK	GRAAGTFDS	0.25	3/3	1/9
AFTLNSYGIL	VIYSDGRRTFMGDSVK	GRAAGTFDS	1.14	3/3	0/9
GFTLNSYGIN	VIYSDGRRTFYGSSVK	GMAAGTFDS	1.59	3/3	0/9
GFTLNRYGIT	VIYSDGRRTFYGDSVK	GRAAGTFDS	1.87	3/3	0/9
GFTLNSYGIE	VIYSDGRRTFYGDSVK	GKAAGTWDS	1.98	3/3	2/9
GFTLNSYGIN	VIYSDGRRTFYGDSVK	GRAAGTFDS	2.96	3/3	3/9
GFTLNSYGIN	VIYSDGRRTFYGDSVK	GNAAGTFMS	3.75	3/3	2/9
GFTLNSYGIQ	VIYSDGRRTFYGDSVK	GRAAGTFDS	4.63	3/3	7/9
GFTLNSYGIF	VIYSDGRRTFYGDSVK	GRSAGTFDS	4.73	3/3	6/9

Empty control strains, which show no peptide, gave a signal in 15% of pairings with library AAYL49; the median was 4.06 and 95% of these signals were weaker than 2.83. No background was subtracted. For each scFv, signals with the empty controls are counted beside the result.

Values reported by Engelhart et al. 2022, doi:10.1038/s41597-022-01779-4 (FLAb copy).